Source: PubChem BioAssay AID1346983 (Tox21, 2019)
This is a selection; strong and weak results do not stand in their true shares. Results filed as inconclusive are left out. Calls of active or inactive are those of the source. Calls come from the whole dose curve; as a rule, active = well fitted activation curve with a large enough effect in the repeat runs; inconclusive = weak or mixed curves; inactive = no such curve, though single readings can be large or run the other way.

Amino acid sequences for entries named in this document (tags omitted).
UniProt Q9R1A7, whole entry: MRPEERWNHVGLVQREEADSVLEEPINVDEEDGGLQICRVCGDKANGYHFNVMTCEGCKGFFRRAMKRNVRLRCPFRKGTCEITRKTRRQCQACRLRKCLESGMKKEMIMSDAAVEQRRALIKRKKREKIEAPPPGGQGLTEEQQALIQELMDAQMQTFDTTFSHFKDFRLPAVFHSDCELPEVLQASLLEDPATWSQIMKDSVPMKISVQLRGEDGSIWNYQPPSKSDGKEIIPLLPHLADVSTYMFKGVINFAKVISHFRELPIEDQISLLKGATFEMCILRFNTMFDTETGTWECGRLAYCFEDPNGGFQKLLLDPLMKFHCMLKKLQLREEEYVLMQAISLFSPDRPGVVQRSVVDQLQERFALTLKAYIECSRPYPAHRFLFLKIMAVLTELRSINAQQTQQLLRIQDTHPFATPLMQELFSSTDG

What follows are compounds tested against Nuclear receptor subfamily 1 group I member 2 (Rattus norvegicus) (UniProt Q9R1A7) (assay: Rat pregnane X receptor (rPXR) activation by small molecules, qHTS assay). Conditions: rPXR luciferase reporter cells, One-Glo luminescence, 24 h; stronger effect = higher value.
Description: National Center for Advancing Translational Sciences [NCATS] NIH Chemical Genomics Center [NCGC] U.S. Environmental Protection Agency [EPA] National Institutes of Environmental Health Sciences [NIEHS] National Toxicology Program [NTP] Assay overview: The Pregnane X receptor (PXR), a ligand activated nuclear receptor plays a critical role in the regulation of genes involved in drug metabolism and transporters. PXR binds xenobiotics and when compounds interact with PXR produces enhanced expression of CYP3A genes. In humans PXR activation and CYP3A4 induction can be problematic due to their interactions with co-medicated drugs and decrease their efficacy or increase their own metabolism. However, there are known species-specific differences with regard to PXR activation that should be taken into account when animal PXR data are extrapolated to humans. A cell based rat PXR (rPXR) assay (developed by Puracyp, Inc., CA) was used to assess the activation of rPXR.
Assay Protocol Summary: rPXR cells were dispensed at 2,000 per well in 5uL of assay medium into white, solid-bottom 1536-well plates using a Multidrop Combi dispenser (Thermo Scientific). […] Then 5ul One-Glo assay reagent (Promega) was added to each plate by a Flying Reagent Dispenser (FRD, Aurora Discovery) and following 30 min incubation at room temperature, luciferase activity was quantified on a ViewLux plate reader (Perkin Elmer).
% is set by controls: 0 for no effect and ±100 for the full control effect.
Note: nearly all actives have a fitted effect of over 20% in size.

SMILES | max activation
CCC(=O)N(c1ccccc1)C1CCN(CCc2ccccc2)CC1 | inactive: 0.385%
CN(CCCl)CCCl | inactive: -6.15%
